Protein sequences, listed by entry. Tags and fused reporters are not part of them.
UniProt O75874, whole entry R132H: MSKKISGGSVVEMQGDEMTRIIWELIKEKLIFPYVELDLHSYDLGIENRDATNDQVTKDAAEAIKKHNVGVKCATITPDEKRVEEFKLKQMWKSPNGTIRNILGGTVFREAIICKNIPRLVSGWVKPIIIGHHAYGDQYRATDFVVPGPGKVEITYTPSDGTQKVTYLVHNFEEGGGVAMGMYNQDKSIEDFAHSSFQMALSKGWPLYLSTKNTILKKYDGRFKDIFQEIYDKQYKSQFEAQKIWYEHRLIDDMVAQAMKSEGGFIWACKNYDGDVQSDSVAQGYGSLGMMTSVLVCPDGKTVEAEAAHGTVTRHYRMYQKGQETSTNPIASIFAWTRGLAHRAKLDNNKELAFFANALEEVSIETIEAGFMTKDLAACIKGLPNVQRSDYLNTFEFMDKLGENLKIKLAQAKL
UniProt O75874, whole entry R132C: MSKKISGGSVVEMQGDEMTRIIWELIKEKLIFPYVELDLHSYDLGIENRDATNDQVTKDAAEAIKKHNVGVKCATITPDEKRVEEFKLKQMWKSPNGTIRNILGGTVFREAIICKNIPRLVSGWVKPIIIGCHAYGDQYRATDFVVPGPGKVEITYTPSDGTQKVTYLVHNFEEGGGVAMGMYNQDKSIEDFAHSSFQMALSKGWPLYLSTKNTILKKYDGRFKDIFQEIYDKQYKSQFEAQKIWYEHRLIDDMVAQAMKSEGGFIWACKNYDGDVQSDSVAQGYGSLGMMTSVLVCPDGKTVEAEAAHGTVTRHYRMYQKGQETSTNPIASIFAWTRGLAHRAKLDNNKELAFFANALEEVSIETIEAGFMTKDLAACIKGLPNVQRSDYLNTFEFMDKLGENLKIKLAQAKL

In patent publication US10253015B2, “Pyridinyl quinolinone derivatives as mutant-isocitrate dehydrogenase inhibitors” (FORMA TM2, Inc., priority 2014, dated 2019):

Legend:
[1] = molecular target: IDH1-R132H recombinant protein (Homo sapiens (Human), UniProt O75874, R132H); assay: IDH1-R132H enzymatic assay; assay type: biochemical; conditions: inhibition of NADPH consumption, diaphorase/resazurin readout; read-out: Enzyme IDH1 R132H Range IC50
Protocol: (§1) Assays were performed in a 384-well black plate. An aliquot of 250 nL of compound was incubated with 10 μL of 30 nM IDH1-R132H or 10 nM IDH1-R132C recombinant protein in assay buffer (50 mM Tris pH=7.5, 150 mM NaCl, 5 mM MgCl2, 0.1% (w/v) Bovine Serum Albumin, and 0.01% Triton X-100) in each well at 25° C. for 15 minutes. After the plate was centrifuged briefly, an aliquot of 10 μL of 2 mM α-ketoglutarate and 20 μM NADPH solution prepared in assay buffer was then added to each well and the reaction was maintained at 25° C. for 45 minutes. An aliquot of 10 μL of diaphorase solution (0.15 U/mL diaphorase and 30 μM Resazurin in assay buffer) was added to each well. […] The IC50 of a given compound was calculated by fitting the dose response curve of inhibition of NADPH consumption at a given concentration with the four parameter logistic equation.

[2] = molecular target: IDH1-R132C recombinant protein (Homo sapiens (Human), UniProt O75874, R132C); assay: IDH1-R132C enzymatic assay; assay type: biochemical; conditions: inhibition of NADPH consumption, diaphorase/resazurin readout; read-out: Enzyme IDH1 R132C Range IC50
Protocol: as §1

| SMILES | IC50 [1] [µM] | IC50 [2] [µM] |
| --- | --- | --- |
| COc1cc(N[C@H](C)c2cc3cc(Cl)ccc3[nH]c2=O)ncc1C#N [Compound I-3, 6-{[(1R)-1-(6-chloro-2-oxo-1,2-dihydroquinolin-3-yl)ethyl]amino}-4-methoxypyridine-3-carbonitrile] | 1 to 10 | 1 to 10 |
| C[C@H](Nc1cccc(N2CCOC2=O)n1)c1cc2cc(Cl)ccc2[nH]c1=O [Compound I-11, 6-chloro-3-[(1S)-1-{[6-(2-oxo-1,3-oxazolidin-3-yl)pyridin-2-yl]amino}ethyl]-1,2-dihydroquinolin-2-one] |  | 0.1 to 1 |
| COc1cc2[nH]c(=O)c(C(C)Nc3ccc(C#N)c(C)n3)cc2cc1Cl (centres unmarked) [Compound I-24, 6-{[1-(6-chloro-7-methoxy-2-oxo-1,2-dihydroquinolin-3-yl)ethyl]amino}-2-methylpyridine-3-carbonitrile] | < 0.1 | 0.1 to 1 |
